PMC8360000 (Clinical Pharmacology and Therapeutics, 2021)

System: P‐gp
Experiment: IVIVE of intrinsic CL and Kp,uu,brain using REF and BMEC protein content
Design: species or system human

CCN(CC)CCNC(=O)c1cc(Cl)c(N)cc1OC [Metoclopramide, metoclopramide]
IVIV Extrapolated CLi (mean ± standard deviation, scaled with BMEC protein content): 279 ± 58 mL/min | P/O (predicted/observed value) (method 2): 1.08
